Literature values as cited in US9999613B2, “2H-chromene derivatives as analgesic agents” (OBSHESTVO S OGRANICHENNOI OTVETSVENNOSTJU “LEOFORS”, priority 2014, dated 2018).

Conditions: from ref. [2]; cited from earlier work

O=C(O)Cc1ccccc1Nc1c(Cl)cccc1Cl [Sodium diclofenac, reference compound]
therapeutic index (IS50): 74
